{"sequences": {"note": "Sequences of proteins named here, by UniProt entry; tags and fusion partners are left off. A change or cut given only in a name is not applied to a line headed by its entry.", "UniProt Q16548": "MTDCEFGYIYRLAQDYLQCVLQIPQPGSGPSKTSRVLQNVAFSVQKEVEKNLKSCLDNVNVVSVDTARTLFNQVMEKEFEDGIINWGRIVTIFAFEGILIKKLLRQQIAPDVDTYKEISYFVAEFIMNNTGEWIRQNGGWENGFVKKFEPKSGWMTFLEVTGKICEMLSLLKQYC"}, "source": "PubChem BioAssay AID1320", "about": "(NMMLSC, 2008)", "molecular_target": "Bcl-2-related protein A1 (Homo sapiens) (UniProt Q16548)", "assay": "inhibitors of Bim binding to Bfl-1, dose response, biochemical, multiplexed, bead-based flow cytometry (AID 1320); further: test concentration not given here", "conditions": "Bim peptide-Bfl-1 binding, fluorescence", "note": "Only a part is listed here, and it is no random draw. Calls of active or inactive are those of the source. How the calls were made is not given here.", "data": [{"smiles": "CCOP1(=S)c2c(C)nn(CCC#N)c2N=C(c2ccc(F)cc2)N1C", "note": "(stereo unspecified)", "values": [{"measurement": "percent span (inhibition)", "result": "inactive"}]}]}
